Test results as given in PubChem BioAssay AID624304 (Sanford-Burnham Center for Chemical Genomics, 2012).
The entries are a selection whose mix differs from that of the whole data set. Active and inactive are the calls of the source.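 Rule for the calls: active = interference check ratio from 0.5 to 1.5 plus GFP to RFP signal ratio inhibition reaching or exceeding a fixed threshold (cut at about 30% in these data, passing the limit was not always enough); inactive = the rest.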

assay: gst-4 reporter inhibition in live C. elegans – whole organism, uHTS, GFP/RFP fluorescence ratio, strain VP596, SKN-1 inhibitor project, primary screen (AID 624304); conditions: C. elegans VP596 Pgst-4::GFP/RFP ratio, acrylamide-induced, 24 h; at 21.8 µM; active compounds read high

SMILES	inhibition
CC(C)(C)n1nnnc1C(c1ccnc2ccccc12)N1CCC(n2c(=O)[nH]c3ccccc32)CC1 (centres undefined)	inactive: 9.17%
CCN1CCC(Nc2cccc(F)c2)CC1	inactive: -5.51%
COc1ccc(C(c2nnnn2C2CCCCC2)N2CCC(n3c(=O)[nH]c4ccccc43)CC2)cc1 (centres undefined)	inactive: -1.01%
Cc1ccccc1NC1(C#N)CCN(Cc2ccccc2)CC1	inactive: -0.0628%
Cn1c(=O)[nH]cc(N(CCCl)CCCl)c1=O	inactive: 24.5%
CN(C)c1ccc(C(=O)NCC2(N3CCCCC3)CCCCC2)cc1	inactive: 8.54%
O=C(NCC1(N2CCCCC2)CCCCC1)c1ccco1	inactive: 19.3%
CCC(c1nnnn1C1CCCCC1)N1CCC(n2c(=O)[nH]c3ccccc32)CC1 (centres undefined)	inactive: -7.96%
CC(=O)N(c1ccccc1)C1CCNCC1	inactive: 7.79%
COc1cccc(C(c2nnnn2C2CCCCC2)N2CCC(n3c(=O)[nH]c4ccccc43)CC2)c1OC (centres undefined)	inactive: 4.28%
O=c1[nH]c2ccccc2n1C1CCN(C(c2ccnc3ccccc23)c2nnnn2C2CCCCC2)CC1 (centres undefined)	inactive: 5.4%
COc1cc(OC)cc(C(=O)NCC2(N3CCCCC3)CCCCC2)c1	inactive: 9.65%
Fc1ccccc1NC1CCN(Cc2ccccc2)CC1	inactive: 1.25%
Cc1ccc(C(=O)NCC2(N3CCCCC3)CCCCC2)o1	inactive: -7.08%
Cc1ccc(NC2(C#N)CCN(Cc3ccccc3)CC2)cc1	inactive: -3.95%
COc1cccc(C(=O)N(c2cc(C)cc(C)c2)C2CCN(C(=O)OC(C)(C)C)CC2)c1	inactive: 0.51%
COc1cc(OC)cc(C(=O)NCC2(N3CCOCC3)CCCCC2)c1	inactive: -2.93%
COc1cccc(C(c2nnnn2C2CCCC2)N2CCC(n3c(=O)[nH]c4ccccc43)CC2)c1OC (centres undefined)	inactive: 7.83%
CCC(CO)(C(=O)OC1CN2CCC1CC2)c1ccccc1 (centres undefined)	inactive: -9.75%
CN1CCC(Nc2ccc(Cl)cc2)CC1	inactive: -10.3%
CN1CCC(Nc2ccc(F)c(Cl)c2)CC1	inactive: 21.3%
CCOc1ncccc1C(=O)NCC1(N2CCOCC2)CCCCC1	inactive: -5.16%
NN(c1ccccc1)C1CCN(CCc2ccccc2)CC1	inactive: 15.1%
O=C(O)C1(Nc2ccccc2)CCN(Cc2ccccc2)CC1	inactive: 0.0659%
CC(C)(C)OC(=O)N1CCC(Nc2ccccc2)CC1	inactive: -0.312%
CCCOc1ccc(C(=O)NCC2(N(C)C)CCCCC2)cc1	inactive: 14%
O=c1[nH]c2ccccc2n1C1CCN(C(c2cc3ccccc3o2)c2nnnn2C2CCCC2)CC1 (centres undefined)	inactive: 8.68%

SMILES	inhibition
COc1cccc(C(c2nnnn2C(C)(C)C)N2CCC(n3c(=O)[nH]c4ccccc43)CC2)c1OC (centres undefined)	inactive: -1.89%
CCOC(=O)N1CCC(Nc2ccc(C)cc2)CC1	inactive: 2.76%
N/C(=N\O)c1c(N)no[n+]1[O-]	inactive: -32.5%
O=c1[nH]c2ccccc2n1C1CCN(C(c2cccs2)c2nnnn2C2CCCC2)CC1 (centres undefined)	inactive: 23.7%
O=C(OC1CN2CCC1CC2)C1c2ccccc2C=Cc2ccccc21 (centres undefined)	inactive: 13.5%
CCCCn1nnnc1C(c1cccc(OC)c1OC)N1CCC(n2c(=O)[nH]c3ccccc32)CC1 (centres undefined)	inactive: 5.9%
COc1cc(C(=O)NCC2(N3CCOCC3)CCCCC2)cc(OC)c1C	inactive: 3.67%
CCCCn1nnnc1C(c1ccccc1)N1CCC(n2c(=O)[nH]c3ccccc32)CC1 (centres undefined)	inactive: 2.35%
O=C(NCC1(N2CCOCC2)CCCCC1)c1cc(Br)ccc1Cl	inactive: 4.93%
O=c1[nH]c2ccccc2n1C1CCN(C(c2cccs2)c2nnnn2C2CCCCC2)CC1 (centres undefined)	inactive: 16.8%
O=c1[nH]c2ccccc2n1C1CCN(C(c2ccnc3ccccc23)c2nnnn2C2CCCC2)CC1 (centres undefined)	inactive: -1.69%
COc1ccc(C(=O)NCC2(N3CCOCC3)CCCCC2)cc1OC	inactive: -6.5%
CN(C)C1(CNC(=O)c2cccc(C#N)c2)CCCCC1	inactive: -6.64%
Cc1cc(N(CCCl)CCCl)ccc1C=O	inactive: 10.9%
CCCN1CCC(Nc2cc(OC)cc(OC)c2)CC1	inactive: 22.1%
O=c1[nH]c2ccccc2n1C1CCN(C(c2ccccc2)c2nnnn2C2CCCC2)CC1 (centres undefined)	inactive: 16.4%
c1ccc(CN2CCC(Nc3ccccc3)CC2)cc1	inactive: -16.2%
CC(C)(C)n1nnnc1C(c1cccc2ccccc12)N1CCC(n2c(=O)[nH]c3ccccc32)CC1 (centres undefined)	inactive: 13.1%
N#Cc1ccc(C(=O)NCC2(N3CCCCC3)CCCCC2)cc1	inactive: 7.89%
CC(C)(C)OC(=O)N1CCC(N(C(=O)c2ccccc2)c2ccc(Cl)cc2)CC1	inactive: 7.91%
O=C(NCC1(N2CCCCC2)CCCCC1)c1cccc(C(F)(F)F)c1	inactive: 12.1%
O=C(NCC1(N2CCOCC2)CCCCC1)c1cc(=O)[nH]c2ccccc12	inactive: 4.72%
COc1cc(C(=O)NCC2(N3CCCCC3)CCCCC2)ccc1OC(F)F	inactive: 12.1%
CCCCn1nnnc1C(c1cccc2ccccc12)N1CCC(n2c(=O)[nH]c3ccccc32)CC1 (centres undefined)	inactive: 5.68%
CC(C)c1ccc(C(=O)NCC2(N3CCOCC3)CCCCC2)cc1	inactive: 12.1%
COc1ccc(NC2CCN(C(=O)OC(C)(C)C)CC2)cc1	inactive: 5.53%
CN1CCN(CCOC(=O)C(O)(c2ccccc2)c2ccccc2)CC1	inactive: 4.73%
